Assay results taken from patent US20230190943A1, “ALGINIC ACID DERIVATIVE BONDED TO NONSTEROIDAL ANTI-INFLAMMATORY COMPOUND” (MOCHIDA PHARMACEUTICAL CO., LTD., priority 2018, published 2023).

Key:
[1] = Release test of free diclofenac from conjugates in 20 mM sodium phosphate buffer, 37°C (Example 11); assay type: physicochemical; details: for Release Rate in Release Test at pH 5.3: pH 5.3, 37°C; for Release Rate in Release Test at pH 7.0: pH 7.0, 37°C
Description: (§1) (set temperature of air conditioner). After confirming that no gel was formed, this solution was dispensed. Immediately after the dissolution, the amount of free diclofenac present in each solution was measured by LC-MS/MS as an initial state (day 0 of storage). Also, the other dispensed solutions were incubated at 37° C. for 1, 3, and 7 days, and then the amount of free diclofenac was measured. […] The MS conditions are as follows. • Ionization mode: ESI-negative • Ion source temperature: 300 degrees • Capillary voltage: -4000 V

[2] = Release test of free diclofenac, felbinac, ketoprofen or naproxen in sodium phosphate buffer (Example 23); assay type: physicochemical
Description: as §1

[3] = pH 5.3, day 1, free drug (diclofenac, felbinac, ketoprofen or naproxen)
[4] = pH 5.3, day 3, free drug (diclofenac, felbinac, ketoprofen or naproxen)
[5] = pH 5.3, day 7, free drug (diclofenac, felbinac, ketoprofen or naproxen)
[6] = pH 7.0, day 1, free drug (diclofenac, felbinac, ketoprofen or naproxen)
[7] = pH 7.0, day 3, free drug (diclofenac, felbinac, ketoprofen or naproxen)
[8] = pH 7.0, day 7, free drug (diclofenac, felbinac, ketoprofen or naproxen)

Substance | Release Rate in Release Test at pH 5.3 ([1]; Day 1, 0.1% w/w conjugate) | Release Rate in Release Test at pH 5.3 ([1]; Day 3, 0.1% w/w conjugate) | Release Rate in Release Test at pH 5.3 ([1]; Day 7, 0.1% w/w conjugate) | Release Rate in Release Test at pH 7.0 ([1]; Day 1, 0.1% w/w conjugate) | Release Rate in Release Test at pH 7.0 ([1]; Day 3, 0.1% w/w conjugate) | Release Rate in Release Test at pH 7.0 ([1]; Day 7, 0.1% w/w conjugate) | Release Rate in Release Test at pH 5.3 [2, 3] | Release Rate in Release Test at pH 5.3 [2, 4] | Release Rate in Release Test at pH 5.3 [2, 5] | Release Rate in Release Test at pH 7.0 [2, 6] | Release Rate in Release Test at pH 7.0 [2, 7] | Release Rate in Release Test at pH 7.0 [2, 8]
Diclofenac-(1-Amino-2-Propanol)-Alginic Acid Derivative [Compound 9] | 0.0% | 0.0% | 0.1% | 0.0% | 0.7% | 1.9% | – | – | – | – | – | –
Ketoprofen-(2-Amino-N-(2-Hydroxyethyl)Acetamide)-Alginic Acid Derivative [Compound 88] | – | – | – | – | – | – | 0.1% | 0.2% | 0.3% | 0.4% | 1.4% | 3.4%
Naproxen-(2-Amino-N-(2-Hydroxyethyl)Acetamide)-Alginic Acid Derivative [Compound 92] | – | – | – | – | – | – | 0.2% | 0.1% | 0.2% | 0.2% | 0.8% | 1.7%
